Experimental data published in paper PMC9146215, “Design of D-Amino Acids SARS-CoV-2 Main Protease Inhibitors Using the Cationic Peptide from Rattlesnake Venom as a Scaffold” (Pharmaceuticals, 2022).

Sequences of proteins named here, by UniProt entry; tags and fusion partners are left off. Residues count along the entry.
UniProt P00791, 60-385: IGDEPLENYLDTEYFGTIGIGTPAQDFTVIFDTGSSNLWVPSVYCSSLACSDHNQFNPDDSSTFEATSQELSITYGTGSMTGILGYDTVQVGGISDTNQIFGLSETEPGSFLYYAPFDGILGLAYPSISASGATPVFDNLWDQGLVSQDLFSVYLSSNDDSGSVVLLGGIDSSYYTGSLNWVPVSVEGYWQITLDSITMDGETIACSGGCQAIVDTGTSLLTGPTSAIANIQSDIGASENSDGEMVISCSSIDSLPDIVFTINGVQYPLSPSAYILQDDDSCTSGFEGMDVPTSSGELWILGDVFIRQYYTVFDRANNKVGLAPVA

Columns and labels:
[1] = L- and D-peptide stability against pepsin hydrolysis (simulated gastric fluid); assay type: in vitro ADME; details: simulated gastric fluid with pepsin (3.2 mg/mL); simulated gastric fluid: 2 mg/mL NaCl, 3.2 mg/mL pepsin, 80 mM HCl, pH 1.0; 37 °C, 500 rpm; after 8 h; RP-HPLC C18, 214 nm; read-out: Peptide amount remaining after pepsin incubation
Protocol: (§1) As protein hydrolysis is initiated by pepsin, we have performed a hydrolysis experiment simulating gastric fluid for both selected L- and D-peptides. After incubation over 4 and 8 h, the sample was analysed using RP-HPLC (Supplementary Figure S8).
(§2) The preparation of the pepsin solution was performed as described before. The experiment solution contains 2 mg/mL NaCl, 3.2 mg/mL pepsin, and 80 mM HCL at a pH 1.0. This solution simulated gastric fluid. […] Samples were taken after 0 h, 4 h, and 8 h. The samples were analysed by reversed-phase high-performance liquid chromatography (RP-HPLC). The RP-HPLC system (Agilent Technologies, Santa Clara, CA, USA; 1200 series) consisted of a manual injector, quaternary pump, a thermostatted column compartment, and a variable wavelength detector. Chromatography was performed with a C18 column (Agilent Technologies, Santa Clara, CA, USA; ZORBAX 300SB-C18 5 µm, 4.6 × 250 mm) at 25 °C and 214 nm with a flow rate of 1 mL/min. The sample injection volume was 20 µL. Chromatograms were recorded and analysed with the Agilent software ChemStation (G2175BA; B03.01). Mobile phases were acetonitrile (A) and water (B), each supplemented with 0.15% trifluoroacetic acid (TFA) (v/v). The samples were measured isocratically at 10% solvent A for 30 min.

[2] = molecular target: pepsin (Sus scrofa, UniProt P00791); assay: as above; assay type: in vitro ADME; details: simulated gastric fluid: 3.2 mg/mL pepsin, pH 1.0, 37 °C, 4 and 8 h; RP-HPLC
Protocol: as §1, §2

COC(=O)[C@H](CCCCN)NC(=O)[C@H](CCCCN)NC(=O)[C@H](CS)NC(=O)[C@H](CO)NC(=O)[C@H](CCCCN)NC(=O)[C@H](Cc1c[nH]c2ccccc12)NC(=O)[C@H](CCCNC(=N)N)NC(=O)[C@H](Cc1c[nH]c2ccccc12)NC(=O)[C@H](CCCNC(=N)N)NC(=O)[C@H](CS)NC(=O)[C@H](CC(=O)O)NC(=O)[C@H](CCSC)NC(=O)[C@H](CCCCN)NC(C)=O [L-CDP7] gave a remaining at 8 h [1] of ~20%.

With COC(=O)[C@@H](CCCCN)NC(=O)[C@@H](CCCCN)NC(=O)[C@@H](CS)NC(=O)[C@@H](CO)NC(=O)[C@@H](CCCCN)NC(=O)[C@@H](Cc1c[nH]c2ccccc12)NC(=O)[C@@H](CCCNC(=N)N)NC(=O)[C@@H](Cc1c[nH]c2ccccc12)NC(=O)[C@@H](CCCNC(=N)N)NC(=O)[C@@H](CS)NC(=O)[C@@H](CC(=O)O)NC(=O)[C@@H](CCSC)NC(=O)[C@@H](CCCCN)NC(C)=O [D-CDP7] the “Stability against pepsin hydrolysis (in words)” value [2] was “stable against pepsin hydrolysis”.
